Molecular target: T1, RARa ligand binding domain (LBD) (Homo sapiens, UniProt P10276)
T1 construct: purchased Invitrogen
Assay: Cell-free TR-FRET assay, PGC-1a recruitment to RARa LBD
Assay type: biochemical
Procedure: Lanthascreen” TR-FRET RARa and RXR13 coactivator assays (Invitrogen) were performed as per manufacturer protocol using a PerkinElmer (Waltham, Mass.) EnVision™ fluorescence plate reader.

By UniProt entry, the sequences of proteins in these tests, tags left out. Residues count along the entry.
UniProt P10276, 183-417 limits assumed: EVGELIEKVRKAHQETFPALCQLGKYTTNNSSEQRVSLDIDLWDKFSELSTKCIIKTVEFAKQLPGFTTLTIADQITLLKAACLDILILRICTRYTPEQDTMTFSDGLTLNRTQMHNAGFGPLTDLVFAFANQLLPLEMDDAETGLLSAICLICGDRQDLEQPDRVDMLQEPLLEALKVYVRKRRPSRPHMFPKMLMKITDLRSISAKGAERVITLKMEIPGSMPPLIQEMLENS

PGC-1a recruitment to RARa: potently recruited
SMILES: CC1=C(/C=C/C(C)=C/C=C/C(C)=C/C(=O)O)C(C)(C)CCC1 [ATRA, all-trans RA, reference compound]

— patent US9504660B2, “Retinaldehyde mimetics and inhibitors of retinaldehyde dehydrogenase I in the treatment of disorders” (THE BRIGHAM AND WOMEN'S HOSPITAL, INC., priority 2012, dated 2016)
